Values quoted from earlier work in patent US20260256729A1, “CARBAMOYL PHEN[…] AS TAAR1 AGONISTS” (AXSOME THERAPEUTICS, INC., priority 2022, published 2026).
pIC50: −log10 of the molar value.

Sequences of proteins named here, by UniProt entry; tags and fusion partners are left off.
UniProt Q01959, whole entry: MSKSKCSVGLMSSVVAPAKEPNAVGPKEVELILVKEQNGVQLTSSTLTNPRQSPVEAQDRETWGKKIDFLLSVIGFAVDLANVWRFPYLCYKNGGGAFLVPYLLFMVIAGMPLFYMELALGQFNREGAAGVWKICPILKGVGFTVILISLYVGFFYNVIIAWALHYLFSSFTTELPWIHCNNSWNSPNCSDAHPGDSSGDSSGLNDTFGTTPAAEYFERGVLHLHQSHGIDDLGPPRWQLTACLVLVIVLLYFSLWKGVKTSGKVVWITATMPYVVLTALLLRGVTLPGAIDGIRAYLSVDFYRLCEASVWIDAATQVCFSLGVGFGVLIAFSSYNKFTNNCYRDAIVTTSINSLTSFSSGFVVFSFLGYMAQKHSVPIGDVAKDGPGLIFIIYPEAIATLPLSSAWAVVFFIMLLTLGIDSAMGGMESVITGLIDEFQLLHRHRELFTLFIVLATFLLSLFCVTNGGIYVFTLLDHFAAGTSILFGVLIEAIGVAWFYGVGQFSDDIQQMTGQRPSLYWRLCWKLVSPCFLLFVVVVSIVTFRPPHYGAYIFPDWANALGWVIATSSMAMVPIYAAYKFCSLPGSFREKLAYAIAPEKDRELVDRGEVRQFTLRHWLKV

Biological target: human dopamine transporter (hDAT) (Homo sapiens, UniProt Q01959)
Set-up: host or cells: unnamed cell lines or membrane preparations
Conditions: data from published literature (footnote b); cited from earlier work

(+)Methamphetamine
pIC50: 7.09
